Results as given in publication PMC4494942, “Sorafenib and DE605, a novel c-Met inhibitor, synergistically suppress hepatocellular carcinoma” (Oncotarget, 2015).
Where two headings read alike, the source gives them in different places.

Chains of the proteins cited; added tags and fusions are not shown. Residues count along the entry.
UniProt P08581, 25-1390 limits assumed: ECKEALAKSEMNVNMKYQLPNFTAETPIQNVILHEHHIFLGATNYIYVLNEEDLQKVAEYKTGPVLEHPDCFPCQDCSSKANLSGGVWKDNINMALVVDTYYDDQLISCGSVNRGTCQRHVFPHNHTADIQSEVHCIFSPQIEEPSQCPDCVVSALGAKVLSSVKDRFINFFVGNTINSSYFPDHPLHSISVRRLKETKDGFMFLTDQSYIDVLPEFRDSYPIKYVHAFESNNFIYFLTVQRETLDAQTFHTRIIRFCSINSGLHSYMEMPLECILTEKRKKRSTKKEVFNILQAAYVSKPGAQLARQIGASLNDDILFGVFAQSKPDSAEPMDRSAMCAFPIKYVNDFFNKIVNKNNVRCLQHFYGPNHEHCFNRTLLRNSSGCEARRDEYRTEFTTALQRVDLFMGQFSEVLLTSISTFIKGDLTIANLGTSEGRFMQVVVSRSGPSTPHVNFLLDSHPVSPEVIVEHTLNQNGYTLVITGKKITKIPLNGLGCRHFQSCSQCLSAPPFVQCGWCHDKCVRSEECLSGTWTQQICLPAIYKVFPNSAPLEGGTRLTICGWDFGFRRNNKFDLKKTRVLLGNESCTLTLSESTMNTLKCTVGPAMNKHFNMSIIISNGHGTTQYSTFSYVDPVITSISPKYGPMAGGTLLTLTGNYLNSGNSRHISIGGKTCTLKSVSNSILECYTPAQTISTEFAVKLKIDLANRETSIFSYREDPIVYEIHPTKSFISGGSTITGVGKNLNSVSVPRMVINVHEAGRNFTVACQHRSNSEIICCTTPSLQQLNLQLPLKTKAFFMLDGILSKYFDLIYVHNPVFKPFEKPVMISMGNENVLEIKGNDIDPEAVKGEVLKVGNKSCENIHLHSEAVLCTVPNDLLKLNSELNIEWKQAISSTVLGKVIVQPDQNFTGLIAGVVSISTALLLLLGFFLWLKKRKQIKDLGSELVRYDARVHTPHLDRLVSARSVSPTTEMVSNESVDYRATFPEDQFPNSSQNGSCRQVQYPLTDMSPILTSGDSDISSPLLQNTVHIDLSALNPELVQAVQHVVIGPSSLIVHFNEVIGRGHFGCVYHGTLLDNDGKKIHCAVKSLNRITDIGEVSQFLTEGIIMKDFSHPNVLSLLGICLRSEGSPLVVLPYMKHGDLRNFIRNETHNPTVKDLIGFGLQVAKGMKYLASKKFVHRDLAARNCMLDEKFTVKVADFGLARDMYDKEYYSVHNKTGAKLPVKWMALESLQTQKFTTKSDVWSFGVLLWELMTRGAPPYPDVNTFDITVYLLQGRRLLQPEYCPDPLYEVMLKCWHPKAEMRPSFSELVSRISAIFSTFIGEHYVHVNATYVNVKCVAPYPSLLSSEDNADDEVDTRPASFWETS
UniProt P08581, 1078-1345 limits assumed: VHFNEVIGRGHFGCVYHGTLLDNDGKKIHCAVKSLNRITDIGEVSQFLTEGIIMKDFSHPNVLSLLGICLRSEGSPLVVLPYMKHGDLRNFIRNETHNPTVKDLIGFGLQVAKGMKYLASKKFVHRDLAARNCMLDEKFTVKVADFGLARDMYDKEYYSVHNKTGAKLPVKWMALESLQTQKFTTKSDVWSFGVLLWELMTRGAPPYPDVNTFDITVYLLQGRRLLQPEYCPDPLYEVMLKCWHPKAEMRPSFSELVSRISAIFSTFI

Experiments:
[1] = target: recombinant human c-Met kinase domain (Homo sapiens, UniProt P08581); assay: c-Met in vitro kinase flash-plate assay; details: read-out: c-Met kinase activity average IC50, biotinylated peptide substrate
Experimental: (§1) DE605 was synthesized to specifically interact with c-Met and inhibit its kinase activity. The biochemical activity of this compound was measured in a flash-plate assay using recombinant human c-Met kinase domain and a biotinylated peptide substrate. Under these conditions, DE605 inhibited c-Met kinase activity with an average IC50 of 12.3 nM. To assess the selectivity of DE605 for c-Met kinase activity, this compound was profiled against a protein kinase panel of 242 human kinases.
(§2) Kinase inhibition by DE605 was assessed in vitro using a panel of 242 different kinases. Biochemical activity was measured in a flash-plate assay. His6-tagged recombinant human c-Met kinase domain (Aa 974–end; 20 ng) and biotinylated poly-Ala-Glu-Lys-Tyr (6:2:5:1; 500 ng) were incubated with or without the test compound for 90 minutes at room temperature in 100 μl buffer containing 0.3 μCi ^33P-ATP, 2.5 μg polyethylene glycol 20.000, and 1% dimethyl sulfoxide (DMSO), as previously described. Radioactivity was measured with a TopCount microplate scintillation and luminescence counter (Packard BioScience BV). Inhibitory 50% concentration values (IC50) were calculated by nonlinear regression analysis using the RS/1 software program.

[2] = system: FGFR3 mRNA in PLC/PRF/5 cells; assay: FGFR3 mRNA by RT-PCR, PLC/PRF/5; type: cell-based, human; details: PLC/PRF/5, DE605 1.0 μM, 72 h
[3] = system: Hep3B cells; assay: MTT cell viability assay, Hep3B; details: read-out: cell viability IC50, 72 h
[4] = system: PLC/PRF/5 cells; assay: cell-cycle distribution by flow cytometry; details: PLC/PRF/5, 72 h, single agent
Experimental: As sorafenib and c-Met inhibitors reportedly induce apoptosis in cancer cells, we examined the impact of our drug combination on programmed cell death. First, the effect of co-administration of DE605 and sorafenib on cell-cycle distribution was analyzed by flow cytometric analysis.
Figure 3 Effects of sorafenib in combination with DE605 on cell-cycle progression in PLC/PRF/5 cells (A) PLC/PRF/5 cells were treated with the indicated drugs for 72 hours, and cell-cycle distribution was analyzed by flow cytometry. (B) Statistical analysis of sub-G1 phase in PLC/PRF/5 cells exposed to DMSO, sorafenib alone, DE605 alone, or in sorafenib/DE605 combination. Data, mean ± SD (n = 3).
After drug treatment, the cells were harvested by trypsinization, washed with PBS, then pellets were resuspended and fixed in ethanol (70%, v/v) at −20°C overnight, and washed once with PBS. After centrifugation, the cells were incubated for 15 minutes at room temperature in 0.1 ml of phosphate-citric acid buffer. Cells were stained with propidium iodide staining buffer containing Triton X-100 (0.1%, v/v), RNase A (100 μg/ml), and propidium iodide (80 μg/ml) for 30 minutes in the dark. Cell-cycle distribution was analyzed by flow cytometry with CellQuest software (Becton Dickinson).

[5] = system: other 241 human kinases; assay: protein kinase selectivity panel of 242 human kinases; details: at 15.6 μM DE605; none inhibited by more than 50%
Experimental: as §1, §2

[6] = system: FGFR3 mRNA in Hep3B cells; assay: FGFR3 mRNA by RT-PCR, Hep3B; type: cell-based, human; details: 72 h
[7] = system: HepG2 cells; assay: MTT cell viability assay, HepG2; details: read-out: cell viability IC50, HepG2, 72 h
[8] = target: c-Met phosphorylation in Hep3B cells (Homo sapiens, UniProt P08581); assay: phospho-c-Met capture ELISA, HGF-stimulated Hep3B cells
Experimental: We next investigated whether DE605 could inhibit c-Met phosphorylation induced in liver cancer cells by different mechanisms. To this end, we used the PLC/PRF/5 and Hep3B hepatocellular carcinoma cell lines, in which c-Met phosphorylation is respectively triggered by HGF binding or by c-Met gene amplification and ligand-independent activation. […] Moreover, we defined the efficiency of the cellular uptake and retention of DE605. A series of wash-out studies was conducted, in which PLC/PRF/5 and Hep3B cells were incubated for 30 to 45 minutes in the presence of different concentrations of DE605, washed, stimulated with HGF, and subsequently assessed for c-Met phosphorylation. Our findings indicate that c-Met phosphorylation was inhibited upon exposure to DE605 and lasted for more than 20 hours in PLC/PRF/5 and Hep3B cells, with an average IC50 of 5.4 and 7.2 nM, respectively. […] Higher serum concentrations could not be used in this test, as they suppressed the HGF-induced c-Met phosphorylation, probably because of HGF binding to serum proteins or HGF inactivation by serum proteases.
(§3) Figure 1 Effects of DE605 on c-Met phosphorylation, cell viability and epigenetic markers (A-B) PLC/PRF/5 (A) and Hep3B (B) hepatocellular carcinoma cells are characterized by c-Met expression and ligand dependence. In vitro PLC/PRF/5 and Hep3B culture was carried out under serum-free conditions or in the presence of 10% human or mouse serum. Upon HGF stimulation, inhibition of total c-Met phosphorylation by DE605 was assessed by c-Met capture ELISA using a pan-phospho-Tyr antibody. The levels of total phospho-c-Met were also assessed after wash-out of the inhibitors, as described in the Materials and Methods section. […] The cells were treated with different concentrations of the indicated agents for 72 hours, and cell viability was measured by MTT assay. Each value represents the mean ± SD (n = 3). […]
Total c-Met phosphorylation was assessed by c-Met–capture ELISA in Nunc-Immuno MicroWell 96-well solid plates (Sigma-Aldrich) as previously described. […]

[9] = system: HuH7 cells; assay: MTT cell viability assay, HuH7; details: read-out: cell viability IC50, HuH7, 72 h
[10] = target: HGF-induced c-Met phosphorylation (Homo sapiens, UniProt P08581); assay: phospho-c-Met capture ELISA in presence of 10% serum (cell line not specified); details: read-out: inhibition of HGF-induced c-Met phosphorylation, average IC50
Experimental: (§4) We next investigated whether DE605 could inhibit c-Met phosphorylation induced in liver cancer cells by different mechanisms. To this end, we used the PLC/PRF/5 and Hep3B hepatocellular carcinoma cell lines, in which c-Met phosphorylation is respectively triggered by HGF binding or by c-Met gene amplification and ligand-independent activation. […] Moreover, we defined the efficiency of the cellular uptake and retention of DE605. A series of wash-out studies was conducted, in which PLC/PRF/5 and Hep3B cells were incubated for 30 to 45 minutes in the presence of different concentrations of DE605, washed, stimulated with HGF, and subsequently assessed for c-Met phosphorylation. […]
as §3, with “In vitro PLC/PRF/5 and Hep3B culture was carried out under serum-free conditions or in the presence of 10% human or mouse serum.” left out, “assay.” for “assay. Each value represents the mean ± SD (n = 3).”

[11] = system: HL-7702 normal liver cells; assay: MTT cell viability assay, normal liver cells; details: HL-7702, 72 h
Experimental: Supplemental Figure S2: Effects of DE605 on cell viability in normal liver cells and effects of sorafenib in combination with tivantinib on cell viability in hepatocellular carcinoma cells. […]
sorafenib for 72 hours, and cell viability was measured by MTT assay. (B) PLC/PRF/5 cells were treated with various concentrations of sorafenib in combination with tivantinib (ARQ 197) for 72 hours, and cell viability was measured by MTT assay (left). The combination index (CI) values were calculated by CompuSyn software (right). CI values <1 represent synergism, and the numbers reflect the corresponding data points (left). Each value represents the mean ± SD (n = 3).
(1 picture or pasted object on this page, not shown here)

[12] = system: PLC/PRF/5 tumor xenografts; assay: PLC/PRF/5 tumor xenograft model; details: oral, qd, 28 days; sorafenib 60 mg/kg, DE605 80 mg/kg; versus control group
[13] = target: c-Met phosphorylation in PLC/PRF/5 cells (Homo sapiens, UniProt P08581); assay: phospho-c-Met capture ELISA, HGF-stimulated PLC/PRF/5 cells
Experimental: as §4
as §3, with “In vitro PLC/PRF/5 and Hep3B culture was carried out under serum-free conditions or in the presence of 10% human or mouse serum.” left out, “assay.” for “assay. Each value represents the mean ± SD (n = 3).”

[14] = system: phosphorylated-Erk in PLC/PRF/5 cells; assay: western blotting of p-Erk; type: cell-based, human; details: PLC/PRF/5, DE605 alone
[15] = system: PLC/PRF/5 cells; assay: MTT cell viability assay, PLC/PRF/5; details: PLC/PRF/5, 72 h
[16] = system: PLC/PRF/5 cells; assay: nucleosome formation (Cell Death ELISA); details: PLC/PRF/5, 72 h, DE605 1 μM added to sorafenib 4 μM
Experimental: Meanwhile, the possibility of necrotic effect was excluded by examining LDH leakage in the supernatants of drug-treated PLC/PRF/5 cells (Fig. 4A). To confirm this effect, nucleosome formation (representing DNA fragmentation) was determined in drug-treated cells.
Figure 4 Effect of sorafenib plus DE605 on LDH activity, nucleosome formation and the apoptosis-related proteins in PLC/PRF/5 cells (A) PLC/PRF/5 cells were exposed to indicated drugs for 72 hours. LDH acticity in cell supernatants or lysates was analyzed by the CytoTox 96® Non-Radioactive Cytotoxicity Assay (Promega, Madison, WI) according to manufacturer's protocol. […] Nucleosome formation was measured using the Cell Death ELISA Kit (Roche Applied Science). Data, mean ± SD (n = 3; **, P < 0.01 compared with the control group). (C) Cells were treated with various concentrations of sorafenib in combination with DE605 for 72 hours. (D) Cells were exposed to sorafenib (Sor, 4 μM) in combination with DE605 (1 μM) in the presence or absence of zVAD–FMK for 72 hours. Whole-cell lysates were collected and subjected to Western blot analysis with the indicated antibodies.

Which results are given for `CC(=O)N1CCC(n2cc(-c3cnc(N)c(-c4nc5ccccc5o4)c3)cn2)CC1`?
IC50 [1]: 0.0123 µM; mRNA level of FGFR3 [2]: up-regulated; IC50 [3]: 4.5 µM; cell-cycle arrest [4]: no appreciable cell-cycle arrest; inhibition of the other 241 human kinases [5]: ≤ 50%; mRNA level of FGFR3 [6]: up-regulated; IC50 [7]: 1.2 µM; duration of c-Met phosphorylation inhibition after wash-out [8]: more than 20 hours; IC50 ([8]; read-out: c-Met phosphorylation after wash-out, average IC50, wash-out study): 0.0072 µM; IC50 ([8]; read-out: inhibition of HGF-induced c-Met phosphorylation, average IC50, serum-free): 0.0056 µM; IC50 [9]: 2 µM; IC50 ([10]; 10% (v/v) human serum): 0.0191 µM; IC50 ([10]; 10% (v/v) murine serum): 0.0147 µM; cytotoxicity in normal liver cells [11]: a little lower cytotoxicity in HL-7702 cells than in HCC cells; tumor growth inhibition (TGI) [12]: 37.3%; IC50 ([13]; read-out: c-Met phosphorylation after wash-out, average IC50, PLC/PRF/5, wash-out study): 0.0054 µM; IC50 ([13]; read-out: inhibition of HGF-induced c-Met phosphorylation, average IC50, PLC/PRF/5, serum-free): 0.0041 µM; level of phosphorylated-Erk (p-Erk) [14]: dramatically elevated; interaction with sorafenib on cell viability (combination index) ([15]; DE605 0.5 and 1.0 μM with sorafenib, CI <1 = synergism): synergistic effect; IC50 ([15]; read-out: cell viability IC50, MTT): 3.4 µM; sorafenib-induced nucleosome formation [16]: dramatically enhanced
